Reference: US20250195530A1, “POLQ INHIBITORS” (ASTRAZENECA AB, priority 2022, published 2025)

Chains of the proteins cited; added tags and fusions are not shown. Residues count along the entry.
UniProt O75417, 1780-2590: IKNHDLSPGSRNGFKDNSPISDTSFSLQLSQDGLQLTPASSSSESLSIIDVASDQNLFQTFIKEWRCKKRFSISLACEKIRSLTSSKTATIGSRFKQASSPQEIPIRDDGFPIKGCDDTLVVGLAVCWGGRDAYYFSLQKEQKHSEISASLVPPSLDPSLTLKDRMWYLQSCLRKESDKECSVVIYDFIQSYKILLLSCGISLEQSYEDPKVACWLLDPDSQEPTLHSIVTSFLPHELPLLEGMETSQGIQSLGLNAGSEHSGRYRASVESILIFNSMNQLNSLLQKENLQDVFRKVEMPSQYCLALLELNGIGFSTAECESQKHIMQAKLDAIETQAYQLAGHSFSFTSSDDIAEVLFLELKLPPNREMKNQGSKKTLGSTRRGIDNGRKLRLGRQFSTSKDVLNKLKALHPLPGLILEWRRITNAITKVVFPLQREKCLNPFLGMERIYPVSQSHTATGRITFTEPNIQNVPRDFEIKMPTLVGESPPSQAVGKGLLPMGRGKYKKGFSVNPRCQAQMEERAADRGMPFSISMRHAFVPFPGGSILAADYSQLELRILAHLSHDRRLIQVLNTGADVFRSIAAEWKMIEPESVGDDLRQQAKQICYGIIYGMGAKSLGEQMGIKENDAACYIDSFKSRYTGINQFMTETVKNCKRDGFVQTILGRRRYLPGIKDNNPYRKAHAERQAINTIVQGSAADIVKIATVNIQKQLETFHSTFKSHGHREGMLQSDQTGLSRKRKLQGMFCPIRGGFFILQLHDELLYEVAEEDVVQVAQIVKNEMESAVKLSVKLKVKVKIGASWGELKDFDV

Molecular target: isolated polymerase domain (I1780-V2590) of DNA polymerase theta (Polθ) (Homo sapiens (Human), UniProt O75417)

| Structure (SMILES) | IC50 [nM] |
| --- | --- |
| CC1(Oc2ncnc3c2nc(-c2ccc(OCCN4CCNCC4)cc2Cl)n3Cc2cccc(Cl)n2)CC1 [Example 23, 8-(2-chloro-4-(2-(piperazin-1-yl)ethoxy)phenyl)-9-((6-chloropyridin-2-yl)methyl)-6-(1-methylcyclopropoxy)-9H-purine] | 12.6 |
| CN1CCN(CCOc2ccc(-c3nc4c(OC5(C)CC5)ncnc4n3Cc3ccccc3)c(Cl)c2)CC1 [Example 4, 9-Benzyl-8-(2-chloro-4-(2-(4-methylpiperazin-1-yl)ethoxy)phenyl)-6-(1-methylcyclopropoxy)-9H-purine] | 3.16 |
| Cc1cc(OCCCN2CCNCC2)ncc1-c1nc2c(OC3(C)CC3)ncnc2n1Cc1ccccc1 [Example G1, 9-benzyl-8-(4-methyl-6-(3-(piperazin-1-yl)propoxy)pyridin-3-yl)-6-(1-methylcyclopropoxy)-9H-purine] | 2.51 |
| Cc1cnc(Cn2c(-c3ccc(OCCN4CCNCC4)cc3Cl)nc3c(OC4(C)CC4)ncnc32)s1 [Example L3, 2-((8-(2-chloro-4-(2-(piperazin-1-yl)ethoxy)phenyl)-6-(1-methylcyclopropoxy)-9H-purin-9-yl)methyl)-5-methylthiazole] | 3.16 |
| CC1(Oc2ncnc3c2nc(-c2ccc(N4CCNC(=O)C4)cc2Cl)n3Cc2ccccc2)CC1 [Example M3, 4-(4-(9-benzyl-6-(1-methylcyclopropoxy)-9H-purin-8-yl)-3-chlorophenyl)piperazin-2-one] | 6.31 |
| CC1(Oc2ncnc3c2nc(-c2ccc(OCCNCC(=O)O)cc2Cl)n3Cc2ccccc2)CC1 [Example D29, (2-(4-(9-benzyl-6-(1-methylcyclopropoxy)-9H-purin-8-yl)-3-chlorophenoxy)ethyl)glycine] | 10 |
| CN1CCN(CCOc2ccc(-c3nc4c(OC5(C)CC5)ncnc4n3Cc3cccnc3)c(Cl)c2)CC1 [Example H7, 8-(2-chloro-4-(2-(4-methylpiperazin-1-yl)ethoxy)phenyl)-6-(1-methylcyclopropoxy)-9-(pyridin-3-ylmethyl)-9H-purine] | 20 |
| CC(=O)N1CC(Oc2cc(C)c(-c3nc4c(OC5(C)CC5)ncnc4n3Cc3ccccc3)cn2)C1 [Example G10, 1-(3-((5-(9-benzyl-6-(1-methylcyclopropoxy)-9H-purin-8-yl)-4-methylpyridin-2-yl)oxy)azetidin-1-yl)ethan-1-one] | 5.01 |
| CC1(Oc2cccc3c2nc(-c2ccc(OCCN4CCNCC4)cc2Cl)n3Cc2cc(Cl)ccn2)CC1 [Example 15, 2-(2-chloro-4-(2-(piperazin-1-yl)ethoxy)phenyl)-1-((4-chloropyridin-2-yl)methyl)-4-(1-methylcyclopropoxy)-1H-benzo[d]imidazole] | 2 |
| CC1(Oc2ncnc3c2nc(-c2ccc(OCCN4CC[C@@H](O)C4)cc2Cl)n3Cc2cc(Cl)ccn2)CC1 [Example R2, (R)-1-(2-(3-chloro-4-(9-((4-chloropyridin-2-yl)methyl)-6-(1-methylcyclopropoxy)-9H-purin-8-yl)phenoxy)ethyl)pyrrolidin-3-ol] | 3.16 |
| CN1CCN(CCOc2ccc(-c3nc4c(OC5(C)CC5)ncnc4n3Cc3ccccc3)c(Br)c2)CC1 [Example H6, 9-benzyl-8-(2-bromo-4-(2-(4-methylpiperazin-1-yl)ethoxy)phenyl)-6-(1-methylcyclopropoxy)-9H-purine] | 2 |
| CN(CCOc1ccc(-c2nc3c(OC4(C)CC4)ncnc3n2Cc2ccccc2)c(Cl)c1)CC(=O)O [Example D30, N-(2-(4-(9-benzyl-6-(1-methylcyclopropoxy)-9H-purin-8-yl)-3-chlorophenoxy)ethyl)-N-methylglycine] | 3.98 |
| CC1(Oc2ncnc3c2nc(-c2ccc(OCCN4CCNCC4)cc2Cl)n3CCc2ccccn2)CC1 [Example J11, 8-(2-chloro-4-(2-(piperazin-1-yl)ethoxy)phenyl)-6-(1-methylcyclopropoxy)-9-(2-(pyridin-2-yl)ethyl)-9H-purine] | 39.8 |
| CC(=O)N1CCN(CCOc2ccc(-c3nc4c(OC(C)C)ncnc4n3Cc3ccccc3)c(C)c2)CC1 [Example B4, 1-(4-(2-(4-(9-benzyl-6-isopropoxy-9H-purin-8-yl)-3-methyl-phenoxy)ethyl)piperazin-1-yl)ethan-1-one] | 2.51 |
| CC(=O)N1CCN(CCOc2cccc(-c3nc4c(OC5(C)CC5)ncnc4n3Cc3ccccc3)c2Cl)CC1 [Example D8, 1-(4-(2-(3-(9-benzyl-6-(1-methylcyclopropoxy)-9H-purin-8-yl)-2-chlorophenoxy)ethyl)piperazin-1-yl)ethan-1-one] | 2 |
| CC1(Oc2ncnc3c2nc(-c2ccc(O[C@H]4CC[C@H](C(=O)O)CC4)cc2Cl)n3Cc2cc(Cl)ccc2F)CC1 [Example U49, (1r,4r)-4-(3-chloro-4-(9-(5-chloro-2-fluorobenzyl)-6-(1-methylcyclopropoxy)-9H-purin-8-yl)phenoxy)cyclohexane-1-carboxylic acid] | 10 |
| CN1CCN(CCOc2ccc(-c3nc4c(OC5(C)CC5)ncnc4n3Cc3ccccc3)c(CO)c2)CC1 [Example H10, (2-(9-benzyl-6-(1-methylcyclopropoxy)-9H-purin-8-yl)-5-(2-(4-methylpiperazin-1-yl)ethoxy)phenyl)methanol] | 3.98 |
| CC1(Oc2ncnc3c2nc(-c2ccc(OCCCN4CCNCC4)cc2Cl)n3Cc2ccccc2)CC1 [Example D18, 9-benzyl-8-(2-chloro-4-(3-(piperazin-1-yl)propoxy)phenyl)-6-(1-methylcyclopropoxy)-9H-purine] | 2.51 |
| CC1(Oc2ncnc3c2nc(-c2ccc(OCCN4CCNCC4)cc2Cl)n3Cc2ncccc2Cl)CC1 [Example K5, 8-(2-chloro-4-(2-(piperazin-1-yl)ethoxy)phenyl)-9-((3-chloropyridin-2-yl)methyl)-6-(1-methylcyclopropoxy)-9H-purine] | 20 |
| COc1c(OCCN2CCNCC2)ccc(-c2nc3c(OC4(C)CC4)ncnc3n2Cc2ccccc2)c1Cl [Example J3, 9-benzyl-8-(2-chloro-3-methoxy-4-(2-(piperazin-1-yl)ethoxy)phenyl)-6-(1-methylcyclopropoxy)-9H-purine] | 6.31 |
| Cc1cc(OC[C@H]2CNCCO2)ncc1-c1nc2c(OC3(C)CC3)ncnc2n1Cc1ccccc1 [Example G15, (R)-2-(((5-(9-benzyl-6-(1-methylcyclopropoxy)-9H-purin-8-yl)-4-methylpyridin-2-yl)oxy)methyl)morpholine] | 5.01 |
| CC1(Oc2ncnc3c2nc(-c2ccc(OCCN4C[C@@H]5CC[C@H]4CN5)cc2Cl)n3Cc2ccccc2)CC1 [Example R21, (1S,4S)-2-(2-(4-(9-benzyl-6-(1-methylcyclopropoxy)-9H-purin-8-yl)-3-chlorophenoxy)ethyl)-2,5-diazabicyclo[2.2.2]octane] | 2 |
| Cc1nc(Cn2c(-c3ccc(OCCN4CCN(C)CC4)cc3Cl)nc3c(OC4(C)CC4)ncnc32)cs1 [Example 7, 4-((8-(2-Chloro-4-(2-(4-methylpiperazin-1-yl)ethoxy)phenyl)-6-(1-methylcyclopropoxy)-9H-purin-9-yl)methyl)-2-methylthiazole] | 3.98 |
| CC1(Oc2ncnc3c2nc(-c2ccc(OCC(=O)O)cc2Cl)n3Cc2ccccc2)CC1 [Example D24, 2-(4-(9-benzyl-6-(1-methylcyclopropoxy)-9H-purin-8-yl)-3-chlorophenoxy)acetic acid] | 10 |
